This is an account of results in patent US12552694B2, “Use of trivalent metals to enhance aquatic pesticide efficacy, surface water, and sediment quality while minimizing risk to aquatic biota” (SePRO Corporation, priority 2022, dated 2026).

The series in a line: Example 1: capacity of additives to bind dissolved La and Ce (ICP-OES). In kind it is physicochemical.

For sodium EDTA, the pH is 9.5.
